## CycPeptMPDB entries from one study

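Lipid, pH, incubation time, direction and concentration are not recorded in the data file. The list need not hold all peptides of the study. Peptides that the database sets to -10, its floor, are left out.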

PAMPA is the parallel artificial membrane permeability assay, which has no cells and reads passive diffusion. Values are log10 P with P in cm/s, so -5 is more permeable than -7.

| structure (SMILES) | PAMPA (log10 cm/s) |
|---|---|
| CC(=O)N1CCC[C@H]1C(=O)N[C@@H]1C(=O)N(C)[C@H](CC(C)C)C(=O)N(C)[C@@H](CC(C)C)C(=O)N(C)[C@H](CC(C)C)C(=O)N(C)[C@@H](CC(C)C)C(=O)N(C)[C@H](C)C(=O)N[C@@H](CC(C)C)C(=O)N2CCC[C@@H]2C(=O)O[C@@H]1C | -4.91 |
| CC(=O)N1CCC[C@H]1C(=O)N(C)[C@H](CC(C)C)C(=O)N[C@@H]1C(=O)N[C@@H](CC(C)C)C(=O)N(C)[C@@H](CC(C)C)C(=O)N[C@@H](CC(C)C)C(=O)N(C)[C@H](C)C(=O)N[C@H](CC(C)C)C(=O)N2CCC[C@H]2C(=O)O[C@@H]1C | -5.77 |
| CC(=O)N1CCC[C@H]1C(=O)N(C)[C@H](CC(C)C)C(=O)N[C@@H]1C(=O)N(C)[C@H](CC(C)C)C(=O)N(C)[C@@H](CC(C)C)C(=O)N(C)[C@@H](CC(C)C)C(=O)N(C)[C@@H](C)C(=O)N[C@@H](CC(C)C)C(=O)N2CCC[C@H]2C(=O)O[C@@H]1C | -5.09 |
| CC(=O)N1CCC[C@@H]1C(=O)N(C)[C@H](CC(C)C)C(=O)N[C@@H]1C(=O)N[C@@H](CC(C)C)C(=O)N(C)[C@@H](CC(C)C)C(=O)N(C)[C@H](CC(C)C)C(=O)N[C@@H](C)C(=O)N[C@@H](CC(C)C)C(=O)N2CCC[C@H]2C(=O)O[C@@H]1C | -7.18 |
| CC(=O)N1CCC[C@@H]1C(=O)N(C)[C@@H](CC(C)C)C(=O)N[C@@H]1C(=O)N(C)[C@H](CC(C)C)C(=O)N[C@@H](CC(C)C)C(=O)N(C)[C@@H](CC(C)C)C(=O)N(C)[C@H](C)C(=O)N[C@@H](CC(C)C)C(=O)N2CCC[C@@H]2C(=O)O[C@@H]1C | -5.17 |
| CC(=O)N1CCC[C@@H]1C(=O)N(C)[C@H](CC(C)C)C(=O)N[C@@H]1C(=O)N(C)[C@H](CC(C)C)C(=O)N[C@@H](CC(C)C)C(=O)N(C)[C@H](CC(C)C)C(=O)N(C)[C@@H](C)C(=O)N[C@H](CC(C)C)C(=O)N2CCC[C@H]2C(=O)O[C@@H]1C | -5.16 |
| CC(=O)N1CCC[C@@H]1C(=O)N(C)[C@@H](CC(C)C)C(=O)N[C@@H]1C(=O)N[C@@H](CC(C)C)C(=O)N[C@@H](CC(C)C)C(=O)N[C@@H](CC(C)C)C(=O)N[C@@H](C)C(=O)N[C@H](CC(C)C)C(=O)N2CCC[C@@H]2C(=O)O[C@@H]1C | -7.68 |
| CC(=O)N1CCC[C@H]1C(=O)N(C)[C@@H](CC(C)C)C(=O)N[C@@H]1C(=O)N[C@H](CC(C)C)C(=O)N[C@@H](CC(C)C)C(=O)N(C)[C@@H](CC(C)C)C(=O)N(C)[C@@H](C)C(=O)N[C@H](CC(C)C)C(=O)N2CCC[C@H]2C(=O)O[C@@H]1C | -5.48 |
| CC(=O)N1CCC[C@H]1C(=O)N(C)[C@H](CC(C)C)C(=O)N[C@@H]1C(=O)N(C)[C@@H](CC(C)C)C(=O)N(C)[C@H](CC(C)C)C(=O)N(C)[C@H](CC(C)C)C(=O)N(C)[C@H](C)C(=O)N[C@@H](CC(C)C)C(=O)N2CCC[C@H]2C(=O)O[C@@H]1C | -5.58 |
| CC(=O)N1CCC[C@@H]1C(=O)N(C)[C@H](CC(C)C)C(=O)N[C@@H]1C(=O)N[C@@H](CC(C)C)C(=O)N(C)[C@H](CC(C)C)C(=O)N[C@H](CC(C)C)C(=O)N(C)[C@H](C)C(=O)N[C@H](CC(C)C)C(=O)N2CCC[C@H]2C(=O)O[C@@H]1C | -6.49 |
| CC(=O)N1CCC[C@H]1C(=O)N(C)[C@H](CC(C)C)C(=O)N[C@@H]1C(=O)N[C@@H](CC(C)C)C(=O)N[C@@H](CC(C)C)C(=O)N(C)[C@H](CC(C)C)C(=O)N[C@@H](C)C(=O)N[C@H](CC(C)C)C(=O)N2CCC[C@H]2C(=O)O[C@@H]1C | -6.27 |
| CC(=O)N1CCC[C@H]1C(=O)N[C@@H]1C(=O)N[C@H](CC(C)C)C(=O)N(C)[C@H](CC(C)C)C(=O)N(C)[C@H](CC(C)C)C(=O)N[C@H](CC(C)C)C(=O)N(C)[C@H](C)C(=O)N[C@@H](CC(C)C)C(=O)N2CCC[C@@H]2C(=O)O[C@@H]1C | -4.99 |
| CC(=O)N1CCC[C@H]1C(=O)N(C)[C@@H](CC(C)C)C(=O)N[C@@H]1C(=O)N(C)[C@@H](CC(C)C)C(=O)N(C)[C@H](CC(C)C)C(=O)N(C)[C@@H](CC(C)C)C(=O)N[C@@H](C)C(=O)N[C@H](CC(C)C)C(=O)N2CCC[C@@H]2C(=O)O[C@@H]1C | -5.34 |
| CC(=O)N1CCC[C@H]1C(=O)N(C)[C@@H](CC(C)C)C(=O)N[C@@H]1C(=O)N(C)[C@@H](CC(C)C)C(=O)N(C)[C@@H](CC(C)C)C(=O)N[C@@H](CC(C)C)C(=O)N[C@@H](C)C(=O)N[C@H](CC(C)C)C(=O)N2CCC[C@@H]2C(=O)O[C@@H]1C | -7.69 |
| CC(=O)N1CCC[C@H]1C(=O)N(C)[C@@H](CC(C)C)C(=O)N[C@@H]1C(=O)N(C)[C@@H](CC(C)C)C(=O)N(C)[C@@H](CC(C)C)C(=O)N(C)[C@H](CC(C)C)C(=O)N(C)[C@@H](C)C(=O)N[C@H](CC(C)C)C(=O)N2CCC[C@H]2C(=O)O[C@@H]1C | -6.44 |
| CC(=O)N1CCC[C@H]1C(=O)N[C@@H]1C(=O)N[C@H](CC(C)C)C(=O)N[C@H](CC(C)C)C(=O)N[C@H](CC(C)C)C(=O)N[C@@H](CC(C)C)C(=O)N[C@H](C)C(=O)N[C@@H](CC(C)C)C(=O)N2CCC[C@@H]2C(=O)O[C@@H]1C | -6.64 |
| CC(=O)N1CCC[C@H]1C(=O)N(C)[C@H](CC(C)C)C(=O)N[C@@H]1C(=O)N(C)[C@@H](CC(C)C)C(=O)N[C@@H](CC(C)C)C(=O)N[C@H](CC(C)C)C(=O)N[C@H](C)C(=O)N[C@@H](CC(C)C)C(=O)N2CCC[C@H]2C(=O)O[C@@H]1C | -5.81 |
| CC(=O)N1CCC[C@H]1C(=O)N[C@@H]1C(=O)N[C@H](CC(C)C)C(=O)N(C)[C@@H](CC(C)C)C(=O)N(C)[C@@H](CC(C)C)C(=O)N(C)[C@H](CC(C)C)C(=O)N[C@H](C)C(=O)N[C@@H](CC(C)C)C(=O)N2CCC[C@@H]2C(=O)O[C@@H]1C | -5.06 |
| CC(=O)N1CCC[C@@H]1C(=O)N(C)[C@@H](CC(C)C)C(=O)N[C@@H]1C(=O)N(C)[C@@H](CC(C)C)C(=O)N[C@@H](CC(C)C)C(=O)N(C)[C@@H](CC(C)C)C(=O)N(C)[C@@H](C)C(=O)N[C@H](CC(C)C)C(=O)N2CCC[C@@H]2C(=O)O[C@@H]1C | -5.52 |
| CC(=O)N1CCC[C@H]1C(=O)N(C)[C@H](CC(C)C)C(=O)N[C@@H]1C(=O)N[C@@H](CC(C)C)C(=O)N[C@H](CC(C)C)C(=O)N(C)[C@@H](CC(C)C)C(=O)N(C)[C@@H](C)C(=O)N[C@H](CC(C)C)C(=O)N2CCC[C@H]2C(=O)O[C@@H]1C | -6.00 |

Excerpt, the final 3 entries:

| structure (SMILES) | PAMPA (log10 cm/s) |
|---|---|
| CC(=O)N1CCC[C@H]1C(=O)N[C@@H]1C(=O)N[C@H](CC(C)C)C(=O)N(C)[C@@H](CC(C)C)C(=O)N(C)[C@@H](CC(C)C)C(=O)N(C)[C@H](CC(C)C)C(=O)N[C@H](C)C(=O)N[C@@H](CC(C)C)C(=O)N2CCC[C@@H]2C(=O)O[C@@H]1C | -5.06 |
| CC(=O)N1CCC[C@@H]1C(=O)N(C)[C@@H](CC(C)C)C(=O)N[C@@H]1C(=O)N(C)[C@@H](CC(C)C)C(=O)N[C@@H](CC(C)C)C(=O)N(C)[C@@H](CC(C)C)C(=O)N(C)[C@@H](C)C(=O)N[C@H](CC(C)C)C(=O)N2CCC[C@@H]2C(=O)O[C@@H]1C | -5.52 |
| CC(=O)N1CCC[C@H]1C(=O)N(C)[C@H](CC(C)C)C(=O)N[C@@H]1C(=O)N[C@@H](CC(C)C)C(=O)N[C@H](CC(C)C)C(=O)N(C)[C@@H](CC(C)C)C(=O)N(C)[C@@H](C)C(=O)N[C@H](CC(C)C)C(=O)N2CCC[C@H]2C(=O)O[C@@H]1C | -6.00 |

Source: CycPeptMPDB (Li et al. 2023), which took these values from Kelly et al. 2021, doi:10.1021/jacs.0c06115.